Results: PMC4254541 (Bioorganic & medicinal chemistry letters, 2014)

Sequences of proteins named here, by UniProt entry; tags and fusion partners are left off. Residues count along the entry.
UniProt P05067, 672-711: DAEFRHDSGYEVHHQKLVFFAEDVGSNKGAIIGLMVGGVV
UniProt P05067, 672-713: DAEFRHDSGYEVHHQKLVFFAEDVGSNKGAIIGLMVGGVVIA

Assays:
[1] = biological target: synthetic Aβ(1–40) fibrils (Homo sapiens, UniProt P05067); assay: Displacement of 5 nM [3H]-1a; type: binding; conditions: read-out: Aβ(1–40) EC50; displacement of 5 nM [3H]-1a from synthetic Aβ(1–40) fibrils
[2] = biological target: synthetic Aβ(1–42) fibrils (Homo sapiens, UniProt P05067); assay: Displacement of 5 nM [3H]-1a; type: binding; conditions: read-out: Aβ(1–42) EC50; displacement of 5 nM [3H]-1a from synthetic Aβ(1–42) fibrils

Cc1ccc2c(c1)sc(-c1ccc(N(C)C)cc1)[n+]2C.[Cl-] [ThT, Thioflavine T]
EC50 [1]: > 10 µM | EC50 [2]: > 10 µM
